How the values were obtained:
[1] = system: Madin-Darby canine kidney (MDCK) cells; assay: Trans-Epithelial Permeability Test (TEP Test); type: cell-based; details: Table 5 surfactant system
Procedure: The following Trans-Epithelial Permeability (“TEP”) and Tensiometry tests are used in the instant methods and in the following Examples. In particular, as described above, the TEP test is used to determine when a composition is a reduced irritation composition according to the present invention.
Irritation to the eyes and/or skin expected for a given formulation is measured in accordance with the Invittox Protocol Number 86, the “Trans-epithelial Permeability (TEP) Assay” as set forth in Invittox Protocol Number 86 (May 1994), incorporated herein by reference. In general, the ocular and/or skin irritation potential of a product can be evaluated by determining its effect on the permeability of a cell layer, as assessed by the leakage of fluorescein through the layer. Monolayers of Madin-Darby canine kidney (MDCK) cells are grown to confluence on microporous inserts in a 24-well plate containing medium or assay buffer in the lower wells. The irritation potential of a product is evaluated by measuring the damage to the permeability barrier in the cell monolayer following a 15 minute exposure to dilutions of the product. Barrier damage is assessed by the amount of sodium fluorescein that has leaked through to the lower well after 30 minutes, as determined spectrophotometrically. […]

[2] = system: EpiDerm™ Skin Model; assay: Skin Irritancy Potential Test via in vitro skin equivalents (IL-1α release); type: cell-based, human; details: Table 12; vs C30
From the text: The EpiDerm™ Skin Model provided by MatTek Corporation was used in this study. The target cells are epithelial, derived from human skin. The test materials are applied directly to the culture surface, at air interface, so that undiluted and/or end use dilutions can be tested directly.
The experimental design used in this study consisted of a definitive assay to determine the release of one cytokine. Where tissue viability is not decreased by 50% as compared to the negative control tissue (as measured by MTT reduction), the inflammatory potential is then measured by the synthesis/release of the cytokine IL-1α.
In the treatment phase six skin equivalents are used for each diluted test product, individual results are averaged to provide overall response. 100 μl is applied to each equivalent for 1 hour of diluted product (10% dilution) exposure followed by 5 rinses of Ca, Mg Free PBS solution. Each Tissue is placed in a 6 well tray with assay medium for each rinse and returned to incubation for 24 hours. Following incubation tissues are assessed for cytokine responses of IL-1α.

Question: How did the “PG-10 Laurate concentration at plateau of mildness improvement (TEP Test)” value [1] turn out when “Polyglyceryl-10 Laurate [Polyglycerol-10 Laurate]” was run?
Answer: Its value is “around 0.5%”.

Question: And the “effect of PGE on mildness of the surfactant system” value [2]?
Answer: Its value is “improve the mildness”.

Reference: patent US8338348B2, “Skin cleansing compositions with polyglycerol esters and hydrophobically modified polymers” (Johnson & Johnson Consumer Companies, Inc., priority 2010, dated 2012)
